This passage reports IC50 results from US20050148627A1 (priority 2003, published 2005).

The chains behind the UniProt entries cited, without tags or fusion partners. Residues count along the entry.
UniProt P35354, 18-604 limits assumed: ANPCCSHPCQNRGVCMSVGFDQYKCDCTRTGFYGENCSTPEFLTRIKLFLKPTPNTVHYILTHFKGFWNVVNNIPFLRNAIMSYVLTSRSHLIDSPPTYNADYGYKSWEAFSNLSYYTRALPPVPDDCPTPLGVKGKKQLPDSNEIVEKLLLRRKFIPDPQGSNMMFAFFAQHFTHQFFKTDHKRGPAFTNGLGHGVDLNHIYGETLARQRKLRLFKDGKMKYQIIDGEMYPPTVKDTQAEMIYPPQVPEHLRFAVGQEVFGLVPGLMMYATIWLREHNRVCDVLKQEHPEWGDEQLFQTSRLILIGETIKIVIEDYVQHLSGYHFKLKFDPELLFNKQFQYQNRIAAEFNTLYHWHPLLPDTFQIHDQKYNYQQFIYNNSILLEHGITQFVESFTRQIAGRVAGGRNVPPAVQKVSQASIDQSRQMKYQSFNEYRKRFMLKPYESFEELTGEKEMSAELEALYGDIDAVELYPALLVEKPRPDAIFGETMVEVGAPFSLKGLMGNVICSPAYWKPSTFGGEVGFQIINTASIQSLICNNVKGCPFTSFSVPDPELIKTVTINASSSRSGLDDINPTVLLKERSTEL

Several values for one entry are separate records, joined by “and”; a condition that tells them apart may be missing. Equal values may be shown once.

The target in experiment [1] is T1, COX-2 (Homo sapiens, UniProt P35354). The experiment is described as follows: Modified Assay for COX-1 and COX-2 Activity (PGE2 ELISA): COX-2. Conditions: read-out: hCox-2 Modified IC50, human COX-2. (In general: ELISA stands for enzyme-linked immunosorbent assay.)
In experiment [2] the target is T1, COX-2. The experiment is described as follows: Assay for COX-1 and COX-2 Activity (PGE2 ELISA): COX-2. Conditions: read-out: hCox-2 IC50; human COX-2; standard assay.

By IC50 is commonly meant the concentration that gives 50% inhibition. In the case of `Cc1csc(-c2ccc3c(c2)C=C(C(=O)O)C(C(F)(F)F)O3)c1` (stereo not shown), in experiment [1], the IC50 stood at 7.47 µM. In the case of `O=C(O)C1=Cc2ccc(Oc3ccc(Br)cc3Br)cc2OC1C(F)(F)F` (stereo not shown), the IC50 in experiment [2] stood at 0.849 µM; in experiment [1] it was 0.192 µM. The like results for `Cc1ccc(Oc2cc3c(cc2Cl)C=C(C(=O)O)C(C(F)(F)F)O3)c(F)c1` (stereo not shown) were, in that order, less than 0.137 µM and less than 0.137 µM. For the compound `O=C(O)C1=Cc2cc(-c3ccco3)ccc2OC1C(F)(F)F` (stereo not shown), the IC50 in experiment [2] was more than 100 µM; in experiment [1] it was 32.2 µM and 60.4 µM. Consider `COc1ccc(-c2ccc3c(c2)C=C(C(=O)O)C(C(F)(F)F)O3)cc1OC` (stereo not shown), for which, in experiment [1], the IC50 is 5.99 µM and > 11.1 µM.

Consider `O=C(O)C1=Cc2cc(-c3cccc4cccnc34)ccc2OC1C(F)(F)F` (stereo not shown), for which the IC50 in experiment [2] is 5.47 µM and 3.55 µM. In the case of `Cc1ccc(-c2ccc3c(c2)C=C(C(=O)O)C(C(F)(F)F)O3)cc1` (stereo not shown), the IC50 is 14.4 µM in experiment [2] and 2.8 µM in experiment [1]. The like results for `CC(C)c1cccc(-c2ccc3c(c2)C=C(C(=O)O)C(C(F)(F)F)O3)c1` (stereo not shown) were, in that order, 0.377 µM and 0.382 µM. On to `O=C(O)C1=Cc2cc(-c3ccsc3)ccc2OC1C(F)(F)F` (stereo not shown), for which the IC50 in experiment [2] was more than 100 µM. As for `O=C(O)C1=Cc2cc(-c3ccc4cc[nH]c4c3)ccc2OC1C(F)(F)F` (stereo not shown), the IC50 amounted to 13 µM in experiment [2] and 9.28 µM in experiment [1]. Regarding `O=C(O)C1=Cc2cc(-c3ccco3)cc(Cl)c2OC1C(F)(F)F` (stereo not shown), the IC50 turned out to be 65.8 µM in experiment [2] and 23.4 µM in experiment [1].

Regarding `O=C(O)C1=Cc2cc(-c3ccccc3)cc(Cl)c2OC1C(F)(F)F` (stereo not shown), the IC50 was more than 100 µM in experiment [2] and 52.9 µM in experiment [1].

With `O=C(O)C1=Cc2c(Oc3ccccc3)cccc2OC1C(F)(F)F` (stereo not shown), the IC50 in experiment [2] was 0.316 µM and 0.405 µM; in experiment [1] it was 0.236 µM and 0.203 µM. In the case of `O=C(O)C1=Cc2cc(-c3ccsc3)cc(Cl)c2OC1C(F)(F)F` (stereo not shown), the IC50 in experiment [2] is more than 100 µM; in experiment [1], 37.3 µM. Regarding `O=C(O)C1=Cc2cc(-c3ccc4ccccc4c3)ccc2OC1C(F)(F)F` (stereo not shown), in experiment [2], the IC50 is 3.59 µM and 2.14 µM. Same read-out and setting: as for `Cc1cc(Cl)c(Oc2c(Cl)cc(Cl)c3c2C=C(C(=O)O)C(C(F)(F)F)O3)cc1C` (stereo not shown), the figure is not below 100 µM.

For the compound `O=C(O)C1=Cc2cc(-c3ccc(F)cc3)cc(Cl)c2OC1C(F)(F)F` (stereo not shown), the IC50 in experiment [2] turned out to be 23 µM; in experiment [1], 16.3 µM.
